From US20230355705A1, “DISCOVERY OF YEATS2 YEATS DOMAIN INHIBITORS AS NOVEL ANTI-CANCER AGENTS” (The University of Hong Kong, priority 2022, published 2023) come the findings set out here.

Protein sequences, listed by entry. Tags and fused reporters are not part of them. Residues count along the entry.
UniProt Q9ULM3, 201-332 limits assumed: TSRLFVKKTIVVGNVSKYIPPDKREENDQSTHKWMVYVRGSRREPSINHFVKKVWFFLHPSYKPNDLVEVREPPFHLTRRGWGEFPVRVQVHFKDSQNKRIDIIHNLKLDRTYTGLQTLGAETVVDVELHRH

pIC50: −log10 of the molar value.

For one assay, the system named is H1299 cells. In words: cell growth inhibition assay (ATPlite) H1299. The following applies: 50 µM, 3 days. On the procedure:
(§1) A total of 2000 cells were seeded in a 96-well plate in 100 µL of the medium, treated with DMSO or compounds at indicated concentrations for 3 days. Cell viability was measured using the ATPlite 1step Luminescence Assay System (PerkinElmer) according to the manufacturer’s instructions. Surviving cells were calculated as % relative to DMSO-treated cells.
(§2) To assess the cell permeability behavior of inhibitors, the cellular effects were analyzed in H1299 and A549 cells. We treated cells with different concentration of inhibitors for 3 days. Cell viability was measured using the ATPlite 1step Luminescence Assay System (PerkinElmer) according to the manufacturer’s instructions. Surviving cells were calculated as % relative to DMSO-treated cells.

The next assay concerns the target YEATS2 YEATS domain (Homo sapiens, UniProt Q9ULM3). In words: competitive photo-cross-linking assay. The following applies: toward YEATS2 YEATS, values in text. The method, then:
The probes in the absence or presence of different concentrations of competitors were incubated with recombinant proteins (5 or 20 ng/µL) in binding buffer (50 mM HEPES, 150 mM NaCl, 2 mM MgCl2, 0.1% Tween-20, 20% glycerol, pH 7.5, with 50 ng/µL BSA) for 10 min at 4° C. Then, the samples were irradiated at 365 nm using UV lamp for 20 min in 96-well on ice.
To the prepared photo-cross-linking samples, we added 100 µM rhodamine-N3 for in-gel fluorescence (10 mM stock in DMSO), followed by 1 mM TCEP (freshly prepared 50 mM stock in H2O) and 100 µM TBTA (10 mM stock in DMSO); finally, the reactions were initiated by the addition of 1 mM CuSO4 (freshly prepared 50 mM stock in H2O). The reactions were incubated for 1 h at room temperature (22 to 25° C.) with regular vortexing. The reactions were quenched by adding 5 volumes of ice-cold acetone and placed at — 20° C. overnight to precipitate proteins.
Samples after protein precipitation were centrifuged at 13,000 × g for 5 min at 4° C. The supernatant was discarded, and the pellet was washed with ice-cooled acetone and air-dried for 10 min. The proteins were resuspended in 1 × LDS sample loading buffer (Invitrogen, Waltham, MA) with 50 mM DTT and heated at 95° C. for 8 min. Samples were then resolved by SDS-PAGE. The labeled proteins were visualized by scanning the gel on a Typhoon 9410 variable mode imager (excitation 532 nm, emission filter 580 nm).
YEATS domain of YEATS2 is newly identified as histone benzoylation reader. YEATS2 YEATS preferentially recognizes H3K27bz (Kd = 21.57 µM) with higher binding affinity than H3K27cr (Kd = 37.38 µM) and H3K27ac (Kd = 131.13 µM). Based on the decapeptide (H322-32K27bz), we designed a photoaffinity probe H3K27bz-Dzyne (FIG. 1A) in which the Ala24 was replaced by a diazirine-containing photo reactive amino acid (photo-leu). […] If the inhibitor can occupy the same binding pocket with probe, the fluorescent intensity would decrease (FIG. 1B).

Assay [1] concerns A549 cells. In words: cell growth inhibition assay (ATPlite) A549. The following applies: 50 µM, 3 days. The method, then: as §1, §2
Background: Cellular ATP, detected with luciferase, serves as a proxy for viable cell number.

Assay [2] relates to A549 cells. In words: colony formation assay A549. The following applies: A549, 14 days. The method, then:
A549 and H1299 cells were seeded in 6-well tissue culture plates (200 cells/well) and grown for 14 days. Colonies were fixed with glutaraldehyde (6.0% v/v), stained with crystal violet (0.5% w/v) and photographed.
Cancer cells usually loss of growth control by unlimited division. We next sought to test whether our inhibitor could inhibit the proliferation in NSCLC cells. In clonogenic assay of A549 cells (FIG. 8A), compound MsKbr-bfSAP and MsKcl-bfSAP incubated cells for 14 days, then colonies are fixed by glutaraldehyde and stained by crystal violet. From the result (FIG. 8B), treated cells formed fewer colonies compared to the control cells

Take `C[C@@H](C(=O)N1CCCCC1)N(C)C(=O)[C@H](Cc1ccc(C#N)cc1)NC(=O)[C@H](CCCCNC(=O)c1cc2ccc(Br)cc2o1)NS(C)(=O)=O`: the “inhibition of cell survival” value in the assay on H1299 cells and with A549 cells [1] was “potent inhibition” throughout. The pIC50 (in general, −log10 of the IC50, conventionally taken in molar units) at YEATS2 YEATS domain was 6.24. Besides, the colony formation result in the assay with A549 cells [2] was “stronger inhibition on cell proliferation”.

As for `C[C@H](NC(=O)[C@H](CO)NC(=O)[C@H](CCCCNC(=O)c1cc2ccc(Br)cc2o1)NS(C)(=O)=O)C(=O)N1CCCCC1`, the negative-log IC50 (pIC50) at YEATS2 YEATS domain is 6.89.

Regarding `C[C@H](NC(=O)[C@H](Cc1ccccc1F)NC(=O)[C@H](CCCCNC(=O)c1cc2ccc(Br)cc2o1)NS(C)(=O)=O)C(=O)N1CCCCC1`, the pIC50 at YEATS2 YEATS domain was 6.19. The colony formation entry in the assay on A549 cells [2] is given as “stronger inhibition on cell proliferation”.

As for `C[C@H](NC(=O)[C@H](Cc1ccc([N+](=O)[O-])cc1)NC(=O)[C@H](CCCCNC(=O)c1cc2ccc(Br)cc2o1)NS(C)(=O)=O)C(=O)N1CCCCC1`, the “inhibition of cell survival” value in the assay with H1299 cells and with A549 cells [1] was “potent inhibition” in each case. In addition, the pIC50 at YEATS2 YEATS domain is 6.28. Moreover, the colony formation result with A549 cells [2] is reported as “stronger inhibition on cell proliferation”.
